Earlier results, collected in patent US20130267588A1, “HYDROXYTYROSOL ETHERS” (FUNDACIO IMIM, priority 2010, published 2013).

Protein sequences, listed by entry. Tags and fused reporters are not part of them.
UniProt P20272, whole entry: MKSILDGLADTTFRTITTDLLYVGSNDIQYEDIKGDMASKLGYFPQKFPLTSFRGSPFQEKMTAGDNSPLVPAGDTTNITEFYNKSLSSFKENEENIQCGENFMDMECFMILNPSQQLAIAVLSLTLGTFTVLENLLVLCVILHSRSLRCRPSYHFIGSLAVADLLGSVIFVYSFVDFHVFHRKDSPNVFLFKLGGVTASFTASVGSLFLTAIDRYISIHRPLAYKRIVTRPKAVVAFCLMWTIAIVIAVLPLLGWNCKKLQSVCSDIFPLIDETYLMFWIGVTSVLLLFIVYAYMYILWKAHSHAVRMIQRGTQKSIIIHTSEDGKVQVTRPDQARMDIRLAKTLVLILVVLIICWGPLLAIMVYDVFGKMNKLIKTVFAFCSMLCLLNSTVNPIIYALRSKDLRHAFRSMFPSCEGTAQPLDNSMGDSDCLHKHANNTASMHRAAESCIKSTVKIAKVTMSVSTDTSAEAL

Biological target: T1, CB1 receptor (Rattus norvegicus, UniProt P20272)
T1 construct: displace [^3H]; from tissue; host or cells: rat cerebellum membranes
Conditions: values listed in the literature (Brit. J. Pharmacol. 1999 128: 684); cited from earlier work

CCCCC/C=C\C/C=C\C/C=C\C/C=C\CCCC(=O)NCCO [Anandamide]
pKi: 6.77

pKi: −log10 of the molar value.
